Molecular target: Adrenergic receptor alpha-1 (Rattus norvegicus, UniProt P15823+P23944+P43140)
Experiment: in vitro alpha-1 adrenergic receptor binding assay from rats, using RX 821002 as the displaceable ligand
Assay type: protein assay

Protein sequences, listed by entry. Tags and fused reporters are not part of them. Lines headed by an entry give the natural chain unless they say otherwise; changes in a name come on top.
UniProt P15823: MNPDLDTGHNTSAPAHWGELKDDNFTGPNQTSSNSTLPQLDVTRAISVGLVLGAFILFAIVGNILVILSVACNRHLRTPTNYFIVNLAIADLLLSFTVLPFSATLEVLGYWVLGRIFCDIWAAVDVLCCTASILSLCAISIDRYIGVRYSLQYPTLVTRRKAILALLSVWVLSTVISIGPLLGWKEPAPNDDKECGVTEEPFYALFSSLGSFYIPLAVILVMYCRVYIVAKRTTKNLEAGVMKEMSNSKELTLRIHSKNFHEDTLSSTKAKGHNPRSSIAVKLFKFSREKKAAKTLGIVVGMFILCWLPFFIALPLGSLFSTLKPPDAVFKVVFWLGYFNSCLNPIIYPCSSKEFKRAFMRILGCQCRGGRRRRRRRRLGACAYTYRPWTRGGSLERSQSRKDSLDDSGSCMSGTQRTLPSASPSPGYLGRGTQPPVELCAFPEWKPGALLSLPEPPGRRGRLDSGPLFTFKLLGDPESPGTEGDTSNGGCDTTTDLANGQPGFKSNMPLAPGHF
UniProt P23944: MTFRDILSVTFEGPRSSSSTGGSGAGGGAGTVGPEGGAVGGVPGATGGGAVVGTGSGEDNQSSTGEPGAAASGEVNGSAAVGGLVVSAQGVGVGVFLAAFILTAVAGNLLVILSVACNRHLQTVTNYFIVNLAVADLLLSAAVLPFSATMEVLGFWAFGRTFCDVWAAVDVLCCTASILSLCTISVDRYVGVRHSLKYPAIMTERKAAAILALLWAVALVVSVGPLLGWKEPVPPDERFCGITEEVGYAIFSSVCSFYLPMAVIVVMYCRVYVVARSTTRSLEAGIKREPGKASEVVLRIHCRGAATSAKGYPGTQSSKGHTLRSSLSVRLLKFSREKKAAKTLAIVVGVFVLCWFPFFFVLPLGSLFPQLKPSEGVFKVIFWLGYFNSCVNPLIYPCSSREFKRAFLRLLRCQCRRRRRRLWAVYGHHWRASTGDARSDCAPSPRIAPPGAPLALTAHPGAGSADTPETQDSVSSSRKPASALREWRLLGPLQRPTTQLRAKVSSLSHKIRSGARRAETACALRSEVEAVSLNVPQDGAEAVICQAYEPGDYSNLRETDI
UniProt P43140: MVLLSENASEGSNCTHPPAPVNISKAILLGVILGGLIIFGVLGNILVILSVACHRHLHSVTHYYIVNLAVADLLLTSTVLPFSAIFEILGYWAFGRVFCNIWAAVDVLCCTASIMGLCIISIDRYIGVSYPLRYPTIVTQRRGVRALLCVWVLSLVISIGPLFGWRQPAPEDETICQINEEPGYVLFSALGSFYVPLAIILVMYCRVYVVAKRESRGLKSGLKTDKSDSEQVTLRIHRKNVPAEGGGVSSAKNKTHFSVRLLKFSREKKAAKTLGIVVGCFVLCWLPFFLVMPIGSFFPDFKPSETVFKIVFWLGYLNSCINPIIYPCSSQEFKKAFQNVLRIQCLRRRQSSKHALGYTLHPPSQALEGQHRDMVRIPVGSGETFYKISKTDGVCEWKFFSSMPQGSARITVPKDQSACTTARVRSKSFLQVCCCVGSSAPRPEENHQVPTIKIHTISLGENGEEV

**Q.** With `Clc1cccc(Cl)c1NC1=NCCN1` [CLONIDINE] as the compound, how does the Ki read?
**A.** 116 nM
